In experiment [1] the test system is C2C12. In words: Selectivity for Drosophila melanogaster ryanodine receptor over ryanodine receptor 1 in mouse C2C12 cells. It is filed as cell-based.
Experiment [2] deals with PC-12. The experiment can be described thus: Selectivity for Heliothis virescens recombinant ryanodine receptor over ryanodine receptor 2 in rat PC12 cells. Type of experiment: cell-based.

Take `CNC(=O)c1cc(Cl)cc(C)c1NC(=O)c1cc(Br)nn1-c1ncccc1Cl` [CHLORANTRANILIPROLE]: the Selectivity ratio in experiment [1] was 300; in experiment [2], more than 2000.

(Values after ChEMBL document CHEMBL1158385, “New and selective ryanodine receptor activators for insect control” (Bioorg Med Chem, 2009).)
